In article PMC2916045 (2010):

Biological target: T1, HDAC6 (Homo sapiens, UniProt Q9UBN7)
T1 sequence (Q9UBN7 1-1215): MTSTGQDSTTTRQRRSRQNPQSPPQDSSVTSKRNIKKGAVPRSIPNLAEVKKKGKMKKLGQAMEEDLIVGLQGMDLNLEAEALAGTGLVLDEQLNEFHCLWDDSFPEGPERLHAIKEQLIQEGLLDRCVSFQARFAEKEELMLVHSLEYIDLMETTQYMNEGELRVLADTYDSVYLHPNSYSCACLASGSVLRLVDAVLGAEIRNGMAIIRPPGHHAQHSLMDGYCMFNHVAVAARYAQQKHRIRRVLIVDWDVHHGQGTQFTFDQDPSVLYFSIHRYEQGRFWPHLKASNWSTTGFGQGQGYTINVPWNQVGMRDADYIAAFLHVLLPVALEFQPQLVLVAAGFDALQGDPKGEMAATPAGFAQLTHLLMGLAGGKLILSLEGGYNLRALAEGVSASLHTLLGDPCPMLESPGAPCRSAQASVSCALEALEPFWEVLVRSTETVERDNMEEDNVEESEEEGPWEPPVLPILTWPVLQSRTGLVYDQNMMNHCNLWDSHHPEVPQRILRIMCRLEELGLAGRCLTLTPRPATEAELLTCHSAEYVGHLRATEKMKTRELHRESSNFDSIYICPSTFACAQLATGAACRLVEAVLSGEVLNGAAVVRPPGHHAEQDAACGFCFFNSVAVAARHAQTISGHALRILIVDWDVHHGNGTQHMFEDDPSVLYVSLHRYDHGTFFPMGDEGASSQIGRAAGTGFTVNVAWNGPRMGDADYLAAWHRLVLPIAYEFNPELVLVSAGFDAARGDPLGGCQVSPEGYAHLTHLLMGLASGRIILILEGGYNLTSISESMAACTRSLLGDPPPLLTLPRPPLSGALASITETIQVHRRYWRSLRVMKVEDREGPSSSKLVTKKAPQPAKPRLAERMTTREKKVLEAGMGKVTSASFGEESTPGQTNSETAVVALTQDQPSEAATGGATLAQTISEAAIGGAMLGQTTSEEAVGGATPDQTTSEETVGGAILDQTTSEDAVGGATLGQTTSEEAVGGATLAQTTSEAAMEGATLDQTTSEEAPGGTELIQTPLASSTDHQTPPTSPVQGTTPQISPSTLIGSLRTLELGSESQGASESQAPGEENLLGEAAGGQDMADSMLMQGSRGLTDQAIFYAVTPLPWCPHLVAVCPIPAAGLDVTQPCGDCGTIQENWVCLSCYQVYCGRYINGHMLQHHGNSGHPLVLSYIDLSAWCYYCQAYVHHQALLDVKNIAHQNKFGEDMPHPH
Test: HDAC6 enzyme inhibition, purified human HDAC protein
Type: biochemical
Settings: read-out: HDAC6 IC50 (µM) ± SD; 10-dose, 3-fold serial dilution from 30 µM, duplicate; mean of two experiments (TSA: 9)

Substance: ISOX
- IC50: 0.0024 ± 0.0021 µM
